From ChEMBL document CHEMBL5154664, “Imidazolylacetophenone oxime-based multifunctional neuroprotective agents: Discovery and structure-activity relationships” (Eur J Med Chem, 2022) come the findings set out here.

A short description of this assay: Antioxidant activity assessed as DPPH radical scavenging activity at 20 uM incubated for 30 mins under dark condition by microplate reader based assay. It is filed as functional.

For the compound `O=C1O[C@H]([C@@H](O)CO)C(O)=C1O`, the Activity turned out to be 96.2%.
